By UniProt entry, the sequences of proteins in these tests, tags left out. Where a name states a change or a piece, a line headed by the entry shows the natural chain unless it says otherwise.
UniProt Q91X52: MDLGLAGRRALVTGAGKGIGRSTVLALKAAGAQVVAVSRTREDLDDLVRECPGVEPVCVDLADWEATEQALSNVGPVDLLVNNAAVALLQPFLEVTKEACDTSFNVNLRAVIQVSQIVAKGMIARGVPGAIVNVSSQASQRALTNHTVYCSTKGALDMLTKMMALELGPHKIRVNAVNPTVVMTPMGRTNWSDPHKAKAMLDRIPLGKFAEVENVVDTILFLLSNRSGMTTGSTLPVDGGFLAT

According to patent EP1063290A1, “NOVEL DICARBONYLREDUCTASE AND GENE ENCODING THE SAME” (TAISHO PHARMACEUTICAL CO., LTD, priority 1998, dated 1999):

Target: protein DCR1 (Mus musculus, UniProt Q91X52)
Assay: Dicarbonyl reductase activity assay: substrate specificity and rate constants (NAD(P)H oxidation at 340 nm)
Conditions: substrate concentration 1,000 μM; against a reference of 100 for diacetyl
Protocol: The enzyme activity assay method is not particularly restricted, and it may be based on the activity assay method for mouse carbonyl reductase (CR) (Eur. J. Biochem. 22, 381-387(1995)). The enzyme used here was an expressed recombinant enzyme. • (a) Substrate specificity: In order to determine the substrate specificity, there may be used a hydrocarbon system including various ketone, aldehyde and ester groups, or an aromatic compound.
• (1) This was assayed under the following conditions. The reaction mixture (total: 2.0 ml) comprised an 80 mM potassium phosphate solution (pH 7.0 or 6.0), 0.1 mM NADPH or NADH and a carbonyl substrate or enzyme (50 µl) (10.1 µg or 3.7 µg of glomerin B). The oxidation rate for NAD(P)H was measured at 340 nm.

## O=C1CCc2ccccc21 [1-Indanone]
  RA (%) relative activity: 0%
